Reference: patent publication US10285962B2, “Glutarate compounds for treating ischemia-reperfusion injuries” (The Regents of the University of California, priority 2016, dated 2019)

The chains behind the UniProt entries cited, without tags or fusion partners. Where a name states a change or a piece, a line headed by the entry shows the natural chain unless it says otherwise.
UniProt P56480: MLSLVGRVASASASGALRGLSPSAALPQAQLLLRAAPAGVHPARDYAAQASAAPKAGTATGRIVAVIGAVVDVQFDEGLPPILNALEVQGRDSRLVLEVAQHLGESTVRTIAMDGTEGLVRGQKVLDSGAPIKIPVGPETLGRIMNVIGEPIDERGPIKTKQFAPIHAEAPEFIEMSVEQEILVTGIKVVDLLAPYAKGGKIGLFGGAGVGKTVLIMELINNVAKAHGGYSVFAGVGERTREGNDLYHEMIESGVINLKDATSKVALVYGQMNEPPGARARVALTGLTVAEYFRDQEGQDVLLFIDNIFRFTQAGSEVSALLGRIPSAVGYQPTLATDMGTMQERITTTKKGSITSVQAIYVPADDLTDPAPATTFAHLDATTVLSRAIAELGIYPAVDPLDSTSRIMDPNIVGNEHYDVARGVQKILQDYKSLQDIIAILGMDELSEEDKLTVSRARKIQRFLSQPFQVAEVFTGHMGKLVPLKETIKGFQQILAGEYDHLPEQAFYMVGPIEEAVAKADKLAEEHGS
UniProt Q9CR84: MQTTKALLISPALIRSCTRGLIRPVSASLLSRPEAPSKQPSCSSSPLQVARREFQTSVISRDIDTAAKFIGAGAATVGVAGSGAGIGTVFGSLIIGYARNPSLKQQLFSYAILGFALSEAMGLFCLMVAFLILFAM
UniProt Q9DB20: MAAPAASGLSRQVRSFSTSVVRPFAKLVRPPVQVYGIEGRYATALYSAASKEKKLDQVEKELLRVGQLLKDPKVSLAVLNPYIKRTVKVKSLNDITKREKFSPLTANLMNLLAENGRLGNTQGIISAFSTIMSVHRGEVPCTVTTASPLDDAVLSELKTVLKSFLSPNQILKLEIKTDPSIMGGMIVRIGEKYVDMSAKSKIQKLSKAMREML

Molecular target: cyclophilin D binding to Complex V (Mus musculus, UniProt P56480+Q9CR84+Q9DB20)
Conditions: mouse heart mitochondria, immunoblot

Row | SMILES | CypD binding to Complex V
1 | CN1C(=O)C(Cc2ccc3ccccc3c2)N=C(c2ccc(O)cc2)c2cc(Cl)ccc21 (centres unmarked) [Bz-423] | reduces
2 | CC[C@H]1/C=C/C=C/C[C@@H](C)[C@H](O)[C@@](C)(O)C(=O)[C@@H](C)[C@H](O)[C@@H](C)C(=O)[C@@H](C)[C@H](O)[C@@H](C)/C=C/C(=O)O[C@@H]2[C@H](C)[C@H](CC1)O[C@]1(CC[C@H](C)[C@H](C[C@@H](C)O)O1)[C@H]2C [oligomycin] | increases
